In US20030170893A1, “NANOCAPSULE ENCAPSULATION SYSTEM AND METHOD” (Genesegues, Inc., priority 2000, published 2003):

System: Rt-1 fibroblast cultures
Conditions: rat, 8 hr, 1 μg/ml

In the case of `COc1cc([C@@H]2c3cc4c(cc3[C@@H](O[C@@H]3O[C@@H]5CO[C@@H](C)O[C@H]5[C@H](O)[C@H]3O)[C@H]3COC(=O)[C@H]23)OCO4)cc(OC)c1O` [etoposide], the “Fragmentation Index, cytotoxicity control” value is reported as “hr): 25 ± 10%) (Pei-”.
